Assay results published in patent US6362216B1, “Compounds which inhibit tryptase activity” (Array Biopharma Inc., priority 1998, dated 2002).
pKi: −log10 of the molar value.

Sequences of proteins named here, by UniProt entry; tags and fusion partners are left off. Residues count along the entry.
UniProt P00760, 24-246 limits assumed: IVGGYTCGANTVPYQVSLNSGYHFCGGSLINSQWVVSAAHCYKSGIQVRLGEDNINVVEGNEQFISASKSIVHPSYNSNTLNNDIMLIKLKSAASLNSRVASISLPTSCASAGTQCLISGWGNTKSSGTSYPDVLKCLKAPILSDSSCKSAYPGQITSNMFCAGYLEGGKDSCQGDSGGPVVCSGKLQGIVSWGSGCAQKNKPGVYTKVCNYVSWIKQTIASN

What was measured:
Human plasma thrombin = Human plasma thrombin (Homo sapiens, UniProt P00734); assay: Human plasma thrombin inhibition, H-D-Phe-Pip-Arg-pNA substrate; conditions: read-out: Thrombin Ki; 50 mM Tris-HCl, pH 8.3, 100 mM NaCl, 1% BSA
Experimental: (§1) Protease inhibition was assayed according to published procedures with minor modifications using various proteases and specific chromogenic peptide p-nitroanilide substrates. Assays were performed in Costar ultra-low cluster 96-well microtiter plate (Costar Corning Corp., Cambridge Mass.). Each protease was incubated with various concentrations of the test compound for 15 min. at 37° C. or as otherwise indicated, in specific assay buffer, and the residual activity was then measured by addition of the substrate. p-Nitroaniline produced by the proteolysis was determined by measuring the change in absorbance at 405 nm on a SpectraMAX 340 plate reader (Molecular devices, Sunnyvale, Calif.).
(§2) 1. The inhibition constant, Ki is calculated from individual data points using the equation for a tight-binding inhibitor (See Beith, “Proteinase Inhibitors-Proceedings of 2nd Int. Res. Conference”, Fritz, et al. eds., New York, p.4463-4469 (1974)): […]
(§3) 2. Other inhibition data (Ki>>[E]o), the Ki is calculated from using the equations for a competitive inhibitor: [formula]
Human plasma thrombin activity was determined by using H-D-Phe-Pip-Arg-pNA in 50 mM Tris-HCl, pH 8.3, 100 mM NaCl, 1% BSA (See Lottenberg, et al., Meth. Enzymol. 80, 341-361 (1981)).
(§4) The inhibition constant (Ki) of the test compounds against each proteolytic enzyme was determined according to Zitnik et al., Biochem. Biophys. […]

[1] = molecular target: Bovine pancreatic Trypsin (TPCK-treated) (Bos taurus, UniProt P00760); assay: Bovine pancreatic trypsin inhibition, N-α-Benzoyl-L-Arg-pNA substrate; conditions: read-out: Trypsin Ki; 50 mM Tris-HCl, pH 8.2, 20 mM CaCl2
Experimental: as §1, §2
2. Other inhibition data (Ki>>[E]o), the Ki is calculated from using the equations for a competitive inhibitor: [formula] […]
Bovine pancreatic Trypsin (TPCK-treated) activity was determined by using N-α-Benzoyl-L-Arg-pNA in 50 mM Tris-HCl, pH 8.2, 20 mM CaCl2 (See Somorin, et al., J. Biochem. 85, 157-162 (1979)).
as §4

Human lung tryptase = Human lung tryptase inhibition, chromogenic GPR-pNA substrate; conditions: read-out: Tryptase Ki; tryptase 1 nM, GPR-pNA 320 μM, 50 mM Tris-HCl pH 8.0, 37° C.
Experimental: as §1, §2
[note: [E]o is determined by active site titration of enzyme] […]
as §3
IC50 is determined by fitting the individual inhibition data point to Sigmoid or four-parameter curve-fit equations. […]
as §4

pKi (Human plasma thrombin): < 4.00
pKi [1]: 4.85
pKi (Human lung tryptase): 5.52
SMILES: N=C(N)c1ccc2[nH]c(CC(=O)Nc3ccc(N)cc3)nc2c1
